For the assay, the target named is 14-3-3ζ nhpSer58 with a FLAG tag at its N-terminus (Homo sapiens (Human)) (UniProt P63104).

Consider “28S ribosomal protein S27, mitochondrial [OS = Homo sapiens] (from UniProt Q92552 37-414)”, for which the FC amounted to 5.72 fold.

Turning to “39S ribosomal protein L14, mitochondrial [OS = Homo sapiens] (from UniProt Q6P1L8 31-145) (other; other documents disagree on this pair)”, the FC came out at 0.0318 fold.

Substance “60S ribosomal protein L32 [OS = Homo sapiens] (from UniProt P62910 2-135) (other; other documents disagree on this pair)” yielded an FC of 0.0388 fold.

“NCK-interacting protein with SH3 domain [OS = Homo sapiens] (from UniProt Q9NZQ3 1-722)” showed an FC of 0.178 fold.

On to “SRA stem-loop-interacting RNA-binding protein, mitochondrial [OS = Homo sapiens] (from UniProt Q9GZT3 1-109)”, for which the FC came out at 4.82 fold.
